Assay: Displacement of [3H]DTG from sigma2 receptor in guinea pig brain membrane after 120 mins by scintillation counting analysis
Assay type: cell membranes, Cavia porcellus

## CC(C)=CCN1CC[C@]2(C)c3cc(O)ccc3C[C@H]1[C@H]2C [(+)-PENTAZOCINE]
  Ki: 728 nM

Reference: ChEMBL document CHEMBL3352167 (Bioorg Med Chem, 2015)
